# Source: ChEMBL document CHEMBL4433208, “N-Nitrosulfonamides as Carbonic Anhydrase Inhibitors: A Promising Chemotype for Targeting Chagas Disease and Leishmaniasis” (ACS Med Chem Lett, 2019)
# The chains behind the UniProt entries cited, without tags or fusion partners. Residues count along the entry.
# UniProt O43570, 25-354 limits assumed: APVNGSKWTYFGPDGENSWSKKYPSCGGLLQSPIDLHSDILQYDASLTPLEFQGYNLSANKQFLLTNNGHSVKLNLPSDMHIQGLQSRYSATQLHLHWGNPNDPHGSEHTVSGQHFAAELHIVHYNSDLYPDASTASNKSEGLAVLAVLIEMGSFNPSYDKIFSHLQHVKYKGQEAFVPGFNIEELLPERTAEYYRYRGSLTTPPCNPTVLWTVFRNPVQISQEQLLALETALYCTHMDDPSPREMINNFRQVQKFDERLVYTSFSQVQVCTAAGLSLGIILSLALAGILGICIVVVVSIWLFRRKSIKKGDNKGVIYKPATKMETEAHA
# UniProt P22748, 19-284 limits assumed: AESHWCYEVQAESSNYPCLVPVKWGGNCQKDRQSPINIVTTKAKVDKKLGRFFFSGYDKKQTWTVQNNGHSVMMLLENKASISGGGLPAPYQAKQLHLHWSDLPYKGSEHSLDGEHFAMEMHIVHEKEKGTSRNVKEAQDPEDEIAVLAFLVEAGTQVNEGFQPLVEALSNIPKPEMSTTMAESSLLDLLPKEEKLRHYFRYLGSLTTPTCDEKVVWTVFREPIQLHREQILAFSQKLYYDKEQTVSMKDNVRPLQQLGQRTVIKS
# UniProt P00915, 2-261 limits assumed: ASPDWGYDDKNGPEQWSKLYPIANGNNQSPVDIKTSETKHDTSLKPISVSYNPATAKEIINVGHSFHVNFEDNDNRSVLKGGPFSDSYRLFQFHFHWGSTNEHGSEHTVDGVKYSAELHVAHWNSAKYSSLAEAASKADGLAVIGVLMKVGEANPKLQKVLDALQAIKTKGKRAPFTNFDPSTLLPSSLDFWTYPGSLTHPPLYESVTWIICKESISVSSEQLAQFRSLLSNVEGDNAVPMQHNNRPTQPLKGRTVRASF
# Tests used:
# Carbonic anhydrase 9 = Carbonic anhydrase 9 (Homo sapiens, UniProt Q16790); test: Inhibition of recombinant human carbonic anhydrase 9 preincubated for 15 mins by phenol red dye based stopped flow CO2 hydration assay
# Carbonic anhydrase 12 = Carbonic anhydrase 12 (Homo sapiens, UniProt O43570); test: Inhibition of recombinant human carbonic anhydrase 12 preincubated for 15 mins by phenol red dye based stopped flow CO2 hydration assay
# Carbonic anhydrase 4 = Carbonic anhydrase 4 (Homo sapiens, UniProt P22748); test: Inhibition of recombinant human carbonic anhydrase 4 preincubated for 15 mins by phenol red dye based stopped flow CO2 hydration assay
# Carbonic anhydrase 1 = Carbonic anhydrase 1 (Homo sapiens, UniProt P00915); test: Inhibition of recombinant human carbonic anhydrase 1 preincubated for 15 mins by phenol red dye based stopped flow CO2 hydration assay
# Carbonic anhydrase 2 = Carbonic anhydrase 2 (Homo sapiens, UniProt P00918); test: Inhibition of recombinant human carbonic anhydrase 2 preincubated for 15 mins by phenol red dye based stopped flow CO2 hydration assay
smiles,measurement,setting,value
Nc1cc(S(=O)(=O)[N-][N+](=O)[O-])cc([N+](=O)[O-])c1O,Ki,Carbonic anhydrase 9,5.2 µM
same,Ki,Carbonic anhydrase 12,0.55 µM
same,Ki,Carbonic anhydrase 4,1.9 µM
same,Ki,Carbonic anhydrase 1,19.8 µM
same,Ki,Carbonic anhydrase 2,45 µM
